Among the data in patent US5567716A, “Trans and cis traumatic acid salts having cicatrizant activity associated to bacteriostatic, antiviral, antibiotic or antifungal activity” (priority 1992, dated 1996) are organic solvent solubility and solubility in water values, retold here.

A short description of this series: Physical chemical characteristics: solubility in water and organic solvents.

Substance “gentamycin trans-traumatate [Gentamycin Traumatate]” returned a solubility in water of more than 10000 µg/mL. The substance further showed an organic solvent solubility (in DMSO) of more than 10000 µg/mL.

“hexadecyltrimethylammonium trans-traumatate [Hexadecyltrimethyl Ammonium Traumatate]” gave a solubility in water of more than 10000 µg/mL. Besides, the organic solvent solubility (in ethanol) is more than 20000 µg/mL.
